PubChem BioAssay (Tox21)
The entries are a selection whose mix differs from that of the whole data set. Inconclusive results are not listed. A structure can be active in one record and inactive in another. Where a call stands in place of a potency, no number is given. Active and inactive are the calls of the source. The call rests on the fitted dose curve.

Test: qHTS assay to identify small molecule agonists of the progesterone receptor (PR) signaling pathway - cell viability counter screen (AID 1346799); further: nearly all actives have a fitted effect of over 45% in size
Conditions: PR-UAS-bla HEK293T viability, CellTiter-Glo luminescence, 16 h; series mostly up to 92.4 µM
Description: National Center for Advancing Translational Sciences [NCATS]
NIH Chemical Genomics Center [NCGC]
U.S. Environmental Protection Agency [EPA]
National Institutes of Environmental Health Sciences [NIEHS]
National Toxicology Program [NTP]
U.S. Food and Drug Administration [FDA]
Progesterone receptor (PR), a nuclear hormone receptor, plays an important role in development, metabolic homeostasis and reproduction. It is activated by the steroid hormone progesterone. Endocrine disrupting chemicals (EDCs) and their interactions with steroid hormone receptors like PR causes disruption of normal endocrine function. To identify the compounds that stimulate PR signaling, a PR-UAS-bla GripTite cell line i.e. PR-UAS-bla HEK293T (Invitrogen, Carlsbad, CA, USA) containing a beta-lactamase reporter gene under the control of an UAS response element was used to screen Tox21 10K compound library. The cytotoxicity of the Tox21 compound library against the PR-bla cell line was tested in parallel by measuring the cell viability using CellTiter-Glo assay in the same wells.
Tox21 Assay Protocol Summary:
PR-UAS-bla HEK293T cells were dispensed at 3,000 cells/5 uL of assay medium containing 2% charcoal stripped FBS per well into black wall/clear-bottom 1536-well plates using a Multidrop Combi (ThermoFisher Scientific, Waltham, MA) dispenser. After the assay plates were incubated at a 37C and 5% CO2 for 6 hr, 23 nL of compounds dissolved in DMSO, positive controls or DMSO only was transferred to the assay plate by a Pintool station (Kalypsys, San Diego, CA). The plates were incubated at 37C and 5% CO2 for 16 hr. Then 1 uL of LiveBLAzer B/G FRET substrate was added using a Flying Reagent Dispenser (FRD, Aurora Discovery, San Diego, CA), the plates were incubated at room temperature for 2 hours, and fluorescence intensity was measured by an Envision plate reader (PerkinElmer, Shelton, CT). For cell viability readout that measures cytotoxicity, 4 uL/well of CellTiter-Glo reagent was added into the assay plates using a FRD. After 30 min incubation at room temperature, the luminescence intensity in the plates was measured using a ViewLux (PerkinElmer) plate reader.
Potency means the concentration at half of the fitted maximal effect.

| SMILES | Potency |
| --- | --- |
| N#CBr | inactive |
| Cc1ccc([N+](=O)[O-])cc1[N+](=O)[O-] | inactive |
| CC(C)N(CCO)C(C)C | inactive |
| C/C1=C2N=C(/C=C3N=C(/C(C)=C4\[N-][C@@](C)([C@@H]5N=C1[C@](C)(CCC(=O)NC[C@@H](C)OP(=O)([O-])O[C@H]1[C@@H](O)[C@@H](n6cnc7cc(C)c(C)cc76)O[C@@H]1CO)[C@H]5CC(N)=O)[C@@](C)(CC(N)=O)[C@@H]4CCC(N)=O)[C@@](C)(CC(N)=O)[C@@H]\3CCC(N)=O)C(C)(C)[C@@H]/2CCC(N)=O.[C-]#N.[Co+3] | inactive |
| COc1ccc([N+](=O)[O-])cc1[N+](=O)[O-] | inactive |
| CP(=O)(O)OCCC[Si](O)(O)O | inactive |
| CCOP(=O)(CC)OCC | inactive |
| N=C(N)N[N+](=O)[O-] | inactive |
| Cc1ccc([N+](=O)[O-])c([N+](=O)[O-])c1 | active: 70 µM and inactive |
| Cc1c([N+](=O)[O-])cccc1[N+](=O)[O-] | inactive |
| CC(C)OP(C)(=O)OC(C)C | inactive |
| [NH4+].[O-][Cl+3]([O-])([O-])[O-] | inactive |
| O=[N+]([O-])[O-].[NH4+] | inactive |
| CN(C)CCCl | inactive |
| OCCSCCO | inactive |
| O=[N+]([O-])OCC(CO[N+](=O)[O-])(CO[N+](=O)[O-])CO[N+](=O)[O-] | inactive |
